Like-named read-outs stand apart in the source and are kept apart here.
Key:
[1] = cited from earlier work
TGA of bupropion salts = type: physicochemical
Protocol: 2-5 mg of each salt was placed in an aluminium pan and covered with its lid. DSC was run for each sample at the rate of 10 degrees C./min (for HBr salt, different rates were used to investigate for polymorphs) from 30 degrees C. to 400 degrees C. TGA was also used for each of the HBr, HCl, maleate and tosylate salts.
The salts were analyzed by DSC (at 10° C./min from 30° C. up to 400° C.) and the pH (aq. 0.5%), and the moisture content by KF were also measured. The TGA was performed on the HCl, maleate, tosylate and HBr salts.

[2] = Polyethylene Glycol Alkyl Phenol Surfactants (Table 94)
[3] = PEG-Sorbitan Fatty Acid Esters (Table 91)
[4] = Polyethylene Glycol Alkyl Ethers (Table 92)

Row | Substance | HLB [1, 3] | also measured
1 | PEG-10-100 nonyl phenol |  | HLB [1, 2]: >10
2 | PEG-6 sorbitan tetraoleate | 8.5 | 
3 | PEG-6 sorbitan monolaurate | 16 | 
4 | PEG-20 sorbitan tristearate | 11 | 
5 | PEG-2 cetyl ether |  | HLB [1, 4]: 5.3
6 | PEG-4 sorbitan monostearate | 9.6 | 
7 | PEG-15-100 octyl phenol ether |  | HLB [1, 2]: >10
8 | Lactic acid esters of mono, diglycerides |  | HLB ([1]; Mono- and Diglyceride Surfactants (Table 89)): <10
9 | PEG-20 sorbitan monopalmitate | 16 | 
10 | PEG-20 cetyl ether |  | HLB [1, 4]: 16
11 | PEG-2 stearyl ether |  | HLB [1, 4]: 4.9
12 | PEG-40 sorbitan oleate | 18 | 
13 | Bupropion tosylate |  | thermal stability by TGA (TGA of bupropion salts): not thermally stable
14 | PEG-10 sorbitan laurate | >10 | 
15 | PEG-20 sorbitan trioleate | 11 | 

Reference: US7645802B2 (Biovail Laboratories International SRL., priority 2005, dated 2010)
